Source: patent US20240116832A1, “INHIBITORS OF SOIL NITRIFICATION AND PROCESSES TO PREVENT SAME” (Tessenderlo Group NV, priority 2019, published 2024)

Tested on: earthworms
Details: after 14 days

Ammonium thiosulfate
earthworms died (15 to 1500 L/ha, 10 earthworms per pot): no earthworms had died | earthworm biomass decrease (acceptable limit 20%): 3.9%
